Measured values: publication PMC10221217 (Viruses, 2023)
Entries after “also recorded” stand apart in the source; their conditions may differ.

Sequences of proteins named here, by UniProt entry; tags and fusion partners are left off.
UniProt P61073, whole entry: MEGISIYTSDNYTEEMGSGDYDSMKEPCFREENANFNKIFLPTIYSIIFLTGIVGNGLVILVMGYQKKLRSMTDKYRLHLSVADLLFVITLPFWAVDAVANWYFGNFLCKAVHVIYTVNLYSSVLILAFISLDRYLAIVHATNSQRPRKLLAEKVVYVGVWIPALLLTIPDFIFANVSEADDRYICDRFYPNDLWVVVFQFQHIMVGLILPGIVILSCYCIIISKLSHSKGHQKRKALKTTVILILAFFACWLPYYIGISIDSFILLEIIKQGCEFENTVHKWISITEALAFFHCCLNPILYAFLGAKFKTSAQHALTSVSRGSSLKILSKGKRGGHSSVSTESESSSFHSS

Key:
CCR5 = CCR5 competitive binding assay; conditions: antibody C-45523, 4 μg/mL; CCR5 cell line; 40 min at 4 °C; IgG-FITC, fluorescence 485EX/535EM; maraviroc as positive control; three independent experiments
CXCR4 = biological target: T1, CXCR4 (Homo sapiens, UniProt P61073); experiment: CXCR4 competitive binding assay (anti-CXCR4 mAb 12G5)
T1 construct: expressed in transfected cells

SMILES | competitive binding to CCR5 (CCR5) | comparison of CXCR4 binding of L- and D-peptide (in words) (CXCR4; anti-CXCR4 antibody 12G5 competitive binding) | CXCR4 selectivity over CCR5 (in words) (CXCR4; concluded from CXCR4 and CCR5 competitive binding)
CC[C@@H](C)[C@H]1NC(=O)[C@@H](CO)NC(=O)[C@@H](CC(C)C)NC(=O)[C@@H](CCCNC(=N)N)NC(=O)[C@@H](CCCNC(=N)N)NC(=O)[C@@H](CCCNC(=N)N)NC(=O)[C@@H]([C@H](C)O)NC(=O)[C@@H](CC(N)=O)NC(=O)[C@@H](CC(N)=O)NC(=O)[C@@H](CC(N)=O)NC(=O)[C@H]2CCCN2C(=O)[C@@H](CCCNC(=N)N)NC(=O)[C@@H]([C@H](C)O)NC(=O)[C@H](NC(=O)[C@@H](CC(N)=O)NC(=O)[C@H](NC(=O)[C@H](NC(=O)[C@H](NC(=O)[C@@H](CO)NC(=O)[C@H](N)CCC(=O)O)C(C)C)C(C)C)[C@H](C)CC)CSSC[C@H](C(=O)N[C@H](CC(N)=O)C(=O)N[C@@H](C(=O)N[C@H](CO)C(N)=O)[C@H](C)CC)NC(=O)[C@@H](Cc2c[nH]cn2)NC(=O)[C@@H](C)NC(=O)[C@@H](CCC(N)=O)NC(=O)[C@@H](CCCNC(=N)N)NC(=O)[C@@H]([C@H](C)CC)NC(=O)[C@@H](CC(=O)O)NC(=O)CNC(=O)[C@@H]([C@H](C)CC)NC(=O)[C@@H]([C@H](C)CC)NC(=O)[C@@H](CC(N)=O)NC(=O)[C@@H](CCCNC(=N)N)NC(=O)[C@@H](CCCNC(=N)N)NC(=O)[C@@H](C)NC(=O)[C@@H](Cc2ccc(O)cc2)NC(=O)[C@@H](Cc2ccccc2)NC(=O)[C@@H](C)NC(=O)[C@@H](CCCNC(=N)N)NC(=O)CNC(=O)[C@H]2CCCN2C(=O)CNC1=O [D-V3 loop peptide] | Lack of CCR5 competitive binding; also recorded: Neither peptides displayed any competitive binding to CCR5 |  | 
CC[C@H](C)[C@@H]1NC(=O)[C@H](CO)NC(=O)[C@H](CC(C)C)NC(=O)[C@H](CCCNC(=N)N)NC(=O)[C@H](CCCNC(=N)N)NC(=O)[C@H](CCCNC(=N)N)NC(=O)[C@H]([C@@H](C)O)NC(=O)[C@H](CC(N)=O)NC(=O)[C@H](CC(N)=O)NC(=O)[C@H](CC(N)=O)NC(=O)[C@@H]2CCCN2C(=O)[C@H](CCCNC(=N)N)NC(=O)[C@H]([C@@H](C)O)NC(=O)[C@@H](NC(=O)[C@H](CC(N)=O)NC(=O)[C@@H](NC(=O)[C@@H](NC(=O)[C@@H](NC(=O)[C@H](CO)NC(=O)[C@@H](N)CCC(=O)O)C(C)C)C(C)C)[C@@H](C)CC)CSSC[C@@H](C(=O)N[C@@H](CC(N)=O)C(=O)N[C@H](C(=O)N[C@@H](CO)C(N)=O)[C@@H](C)CC)NC(=O)[C@H](Cc2c[nH]cn2)NC(=O)[C@H](C)NC(=O)[C@H](CCC(N)=O)NC(=O)[C@H](CCCNC(=N)N)NC(=O)[C@H]([C@@H](C)CC)NC(=O)[C@H](CC(=O)O)NC(=O)CNC(=O)[C@H]([C@@H](C)CC)NC(=O)[C@H]([C@@H](C)CC)NC(=O)[C@H](CC(N)=O)NC(=O)[C@H](CCCNC(=N)N)NC(=O)[C@H](CCCNC(=N)N)NC(=O)[C@H](C)NC(=O)[C@H](Cc2ccc(O)cc2)NC(=O)[C@H](Cc2ccccc2)NC(=O)[C@H](C)NC(=O)[C@H](CCCNC(=N)N)NC(=O)CNC(=O)[C@@H]2CCCN2C(=O)CNC1=O [L-V3 loop peptide] | Lack of CCR5 competitive binding; also recorded: Neither peptides displayed any competitive binding to CCR5 | comparable binding recognition to the CXCR4 receptor | CXCR4 binding was selective
